Assay results published in patent US4376119A, “Benzothiazine derivative” (priority 1981, dated 1983).
Where two headings read alike, the source gives them in different places.

Tested on: mice
Settings: p.o.

CN1C(C(=O)Nc2ccccn2)C(=O)c2ccccc2S1(=O)=O (centres unmarked) [Piroxicam, 3,4-dihydro-2-methyl-4-oxo-N-(2-pyridyl)-2H-1,2-benzothiazine-3-carboxamide 1,1-dioxide]
Number of deaths/total number of test animals (100 mg/kg): 0/5
Number of deaths/total number of test animals (200 mg/kg): 1/5
Number of deaths/total number of test animals (400 mg/kg): 1/5
Number of deaths/total number of test animals (650 mg/kg): 4/5
Number of deaths/total number of test animals (800 mg/kg): 5/5
